Apparent affinities of Ab-14 variants for a coronavirus HR2 peptide

Antigen: PDVDLGDISGINAS, a 14-residue peptide of the SARS-CoV-2 spike HR2 region.

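The parent was found by panning a naive human phage display library on the peptide. AAYL49 was designed without a model: most single CDR substitutions and a random sample of double and triple ones. Affinity was read by AlphaSeq, a pooled yeast mating assay with surface-displayed partners. After mating in shaken culture at 30 °C for 16 h, diploids were selected and their barcode pairs sequenced. The ratio of observed to expected reads was calibrated, replicate by replicate, on BCL2-family standards whose Kd was known from biolayer interferometry. Each pool was mated in three replicate cultures.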

Ab-14 is the parent antibody, in scFv form: VH, then three GGGGS repeats, then VL. The light chain is unchanged in all variants.
VH: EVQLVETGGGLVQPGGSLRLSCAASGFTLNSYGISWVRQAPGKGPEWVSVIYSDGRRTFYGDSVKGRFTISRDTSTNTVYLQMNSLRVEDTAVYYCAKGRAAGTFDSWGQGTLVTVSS
VL: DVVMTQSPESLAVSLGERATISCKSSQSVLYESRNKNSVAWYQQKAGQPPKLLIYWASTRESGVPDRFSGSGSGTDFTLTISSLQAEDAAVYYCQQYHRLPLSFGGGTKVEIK

Substitutions are numbered in sequence along the VH above, starting at 1 (not Kabat). All variants listed here change S31 of the VH, counted from its first residue. Each Kd is an estimate from the mating assay, the geometric mean of the replicates in which the pair was seen; lower is stronger. "nd" means that the variant was in the library but no mating with the target was seen in any replicate; the authors take this as a sign of poor binding, and no number exists. Three control strains display no target. For library AAYL49, 15% of the pairings with them gave a signal, with a median of 11 µM and one signal in twenty below 680 nM, so weak values seen in few replicates may be background. In this assay the parent's reference entry averaged 4.4 nM; its copy inside this library read 13 µM (one replicate of three).

For S31W/A101S, the assay gave 3.0 µM (3 of 3 replicates). With S31Y/A101V/T104N the result was 75 nM (3 of 3 replicates). For T28G/S31V/G55F, the assay gave 2.4 µM (2 of 3 replicates). With G26M/S31E/F59G the result was 170 nM (3 of 3 replicates). Variant F27L/S31E/I51K showed nd (0 of 3 replicates). With S31I/G61S/G103L the result was nd (0 of 3 replicates). For T28A/S31Q/F105I, the assay gave 1.7 nM (3 of 3 replicates). Variant T28E/S31T/I51Y gave nd (0 of 3 replicates). For S31G/T58C/D106E, the assay gave 500 nM (3 of 3 replicates).

For S31P/Y32P, the assay gave 190 µM (3 of 3 replicates). Variant F27S/S31V/S107T gave 190 nM (2 of 3 replicates). Variant G26N/S31D/G55C gave 230 µM (1 of 3 replicates). Variant L29V/S31Y/Y52S showed 1.4 µM (1 of 3 replicates). Variant T28A/S31V/Y32K showed 31 µM (2 of 3 replicates). With T28V/S31E/A102G the result was 6.9 nM (3 of 3 replicates). For S31V/I51C/R56S, the assay gave nd (0 of 3 replicates). Variant S31E gave 34 nM (3 of 3 replicates). Variant S31I/A102S gave 250 nM (3 of 3 replicates).

Variant S31L/R100S/A101D showed 120 nM (3 of 3 replicates). With S31C/Y52R/S107N the result was nd (0 of 3 replicates). With G26F/S31D/R56M the result was 120 nM (3 of 3 replicates). Variant S31L/D62G/G99P gave 6.8 µM (3 of 3 replicates). For S31L/I34T/R56S, the assay gave nd (0 of 3 replicates). Variant S31K/R100K/A102L showed 1.2 µM (1 of 3 replicates). With S31K/R56Q/Y60K the result was 400 µM (1 of 3 replicates). With S31D/V64F/A102L the result was nd (0 of 3 replicates). Variant L29Y/S31I/G103F gave nd (0 of 3 replicates).

Variant S31P/D54R gave 12 µM (1 of 3 replicates). Variant S31R/G103Q/D106G showed nd (0 of 3 replicates). For F27M/S31K/R57P, the assay gave nd (0 of 3 replicates). Variant F27L/S31A/S107E showed 99 nM (3 of 3 replicates). With T28N/S31R the result was 50 nM (3 of 3 replicates). With S31L/I34C/S63R the result was 300 µM (1 of 3 replicates). For N30Y/S31G/I34M, the assay gave nd (0 of 3 replicates). Variant S31W/V50I/K65A showed 1.6 µM (3 of 3 replicates). For S31C/V50A, the assay gave nd (0 of 3 replicates).

Variant S31R/G55I/A101F showed 6.5 µM (1 of 3 replicates). With S31H the result was 13 nM (3 of 3 replicates). Variant S31H/R100S gave 27 nM (3 of 3 replicates). For F27V/S31M/D106S, the assay gave nd (0 of 3 replicates). With S31D/G103A/D106N the result was 200 µM (1 of 3 replicates). Variant G26A/S31K/K65Y gave 140 nM (3 of 3 replicates). For S31H/I51P/D106M, the assay gave nd (0 of 3 replicates). For S31F/Y52V/G103N, the assay gave 120 µM (2 of 3 replicates). With S31K/K65Q/R100G the result was 58 nM (3 of 3 replicates).

Variant S31C/S53M/F59V gave nd (0 of 3 replicates). Variant S31P/D54A/G103A showed nd (0 of 3 replicates). With S31A/I51H/G61R the result was nd (0 of 3 replicates). With S31N/Y60I/G99C the result was nd (0 of 3 replicates). With S31K/S53P/D106K the result was nd (0 of 3 replicates). With S31H/D62H/A101F the result was 110 nM (3 of 3 replicates). Variant S31D showed 4.2 nM (3 of 3 replicates).

The opening 3 entries, copied out:

For S31W/A101S, the assay gave 3.0 µM (3 of 3 replicates).
For S31Y/A101V/T104N, the assay gave 75 nM (3 of 3 replicates).
For T28G/S31V/G55F, the assay gave 2.4 µM (2 of 3 replicates).

From the AlphaSeq antibody data of Engelhart et al. 2022 (doi:10.1038/s41597-022-01779-4), copy in the FLAb collection.